Structures are written as SMILES.

Series [1] has as its system HeLa cells. Description: CFZ potency increase, ratio of CC50 of CFZ alone / with compound. It counts as cell-based, human. As to conditions: compound at 7.5 μM. From the text: (§1) Human HeLa cells (uterine cervical carcinoma) are maintained in DMEM medium supplemented with GlutaMAX™, 10% fetal bovine serum and 1% penicillin-streptomycin.
(§2) We developed a cell-based, high content assay allowing the rapid detection and quantification of apoptotic cells. Caspase-3/7 activity was detected in real-time using the NucView™ 488 Caspase-3 substrate (Biotium), where the caspase-3/7 substrate peptide sequence DEVD is attached to a nucleic acid dye. The NucView™ 488 reagent crosses the plasma membrane to enter the cytoplasm, where the dye is unable to bind to DNA and remains non-fluorescent. Once the substrate has been cleaved by activated caspase-3/7 in apoptotic cells, the high-affinity DNA dye is released and migrates to the cell nucleus to stain the nucleus with a bright green fluorescence. All cell nuclei were also labeled with Hoechst 33342 (Ozyme).
(§3) For HeLa and MCF7 cells, briefly, cells were seeded in 384-microtiter well plate (1500 HeLa cells or 5000 MCF7 cells in 40 μL full medium per well) and let to attach overnight. […] Four fields per well were read with the 20× objective in a confocal mode. […]
(§4) For all cells, Columbus software (Perkin) was used for image quantification and analysis. First, Hoechst 33342 staining was used for an automated detection of nuclei, in which the mean fluorescence intensity for NucView™ 488 was quantified. […]

For series [2], the system named is OPM2 cells. Description: Panobinostat (PAN) potency increase, ratio of AUC of cytotoxicity. In kind it is cell-based, human. As to conditions: OPM2, agent PAN, compound 3 at 15 μM.
From the text: (§5) Human multiple myeloma cells OPM2 (ACC 50, DSMZ) are maintained at 0.3-0.7 10^6 cells/mL in RPMI1640 medium supplemented with GlutaMAX™, 10% fetal bovine serum and 1% penicillin-streptomycin.
as §2, with “All cell nuclei were also labeled with Hoechst 33342 (Ozyme).” left out
(§6) For OPM2, briefly, nanoliters of compound and cytotoxic agent in DMSO stock solutions were first transferred and combined in 384-microtiter well plate using an Echo555 liquid handler (Labcyte). The exact volume of each solution to be transferred was calculated to achieve subsequently the target concentration in the 70 μL volume incubate. […] Four fields per well were read with the 20× objective in a confocal mode. […]
(§7) For all cells, Columbus software (Perkin) was used for image quantification and analysis. […]

The subject of series [3] is TLM1 cells. Description: X-ray radiation in combination with compound, propidium iodide dead cells, ratio of corrected AUC. It counts as cell-based, canine. As to conditions: TLM1, compound at 30 μM. Here is the method: (§8) Canine melanoma TLM-1 cells are maintained in DMEM medium supplemented with GlutaMAX™, 10% fetal bovine serum, 1× Hepes and 1% penicillin-streptomycin.
TLM-1 cells were seeded with the BioTek MicroFlo™ dispenser in μClear® black 384-well plates (Greiner) at the density of 20,000 cells/mL in 50 μL. Compounds for pre-treatment were added 2 h after the seeding, using an Echo 550 (Labcyte). The next day, cells were washed five times with 40 μL media without phenol red with a plate washer (Hydrospeed, Tecan). Cells were irradiated with 4, 6, 8, 12, 16, 20 and 24 Gray (Gy). […] This step was repeated every 72 h after radiation. Plates were incubated at 37° C. and 5% CO2. […] 4 images per well were collected. Images were analyzed with Columbus software (Perkin Elmer). In this system we used predefined building blocks to measure different parameters on nuclei detected. We applied a threshold based on propidium iodide intensity in nuclei of controls to select and count dead cells. By dividing the number of dead cells by the number of nuclei detected we obtained the percentage of dead cells. AUC were determined in one experiment with triplicate incubates on percentage of cells labelled with propidium iodide and were corrected by the percentage of cells labelled with propidium iodide at 0 Gy. […]

The subject of a further series is MCF7 cells. Put plainly: CFZ potency increase, ratio of CC50 of CFZ alone / with compound. In kind it is cell-based, human. As to conditions: MCF7, compound at 15 μM. Here is the method:
Human epithelial MCF7 cells (mammary gland adenocarcinoma) are maintained in EMEM medium supplemented with GlutaMAX™, 10% fetal bovine serum, 0.01 mg insulin and 1% penicillin-streptomycin.
as §2, §3, §4

Series [4] has as its system TLM1 cells. Put plainly: UV-C radiation in combination with compound, ratio of % propidium iodide labelled cells. It counts as cell-based, canine. As to conditions: TLM1, 15 μM compound 24 h before and just after UV-C, 48 h after UV-C at 400 J/m^2, mean of three experiments. Here is the method: as §8
TLM-1 cells were seeded in μClear® black 384-well plates (Greiner) at the density of 60,000 cells/mL in 50 Compounds were added 24 h after the seeding, using an acoustic nanodispensor Echo 550 (Labcyte). The next day, cells were washed five times with 40 μL phosphate buffer saline (PBS) with a plate washer (Hydrospeed, Tecan). 10 μL of PBS was left per well. Plate was submitted to UV-C(Stratalinker® UV Crosslinker, Artisan Technologies Group) with different doses (J/m^2). After UV-C radiation, compounds were added using an acoustic nanodispensor Echo 550 (Labcyte). We complete to 50 μL of media per well. Plates were incubated at 37° C. and 5% CO2. Some hours before image acquisition, propidium iodide (1 Thermofisher) for labeling dead cells and Hoechst 33342 (80 ng/mL, Thermofisher) for nuclei staining were added using an acoustic nanodispensor Echo 550 (Labcyte). […] Images were analyzed with Columbus software (Perkin Elmer). In this system we used predefined building blocks to measure different parameters on nuclei detected. […] By dividing the number of dead cells by the number of nuclei detected we obtained the percentage of dead cells. […]

Series [5] concerns HeLa cells. Description: Nelfinavir (NEL) potency increase, ratio of AUC of cytotoxicity. As to conditions: agent NEL, compound 3 at 15 μM. It counts as cell-based, human.
From the text: as §1, §2, §3, §4

Series [6] concerns OPM2 cells. Put plainly: CFZ potency increase, ratio of CC50 of CFZ alone / with compound. It counts as cell-based, human.
From the text: as §5
as §2, with “All cell nuclei were also labeled with Hoechst 33342 (Ozyme).” left out
as §6, §7

For the compound `O=C(C[C@@H](Cc1ccc2ccccc2c1)n1cc(CNC(=O)c2ccc(F)cc2)nn1)NO` [Compound 3, 4-Fluoro-N-[1-(R-2-hydroxycarbamoyl-1-naphthalen-2-ylmethyl-ethyl)-1H-[1,2,3]-triazol-4-ylmethyl]-benzamide], the “Activity: ratio (CC50 of CFZ alone)/(CC50 of CFZ in combination with compound of the invention)” value with HeLa cells [1] came to 2.8; in the series with MCF7 cells, 2.1; in the series with OPM2 cells [6] (OPM2, compound at 7.5 μM (Table 5)) it was 1.9; in the series with OPM2 cells [6] (OPM2, compound at 7.5 μM (Table 6)), 1.9. The “Activity: ratio of AUC of cytotoxity of PAN with and without 15 μM (3)” value in the series with OPM2 cells [2] came to 2.1. In the series with TLM1 cells [3], the “Activity: ratio of corrected AUC of X-ray radiation in combination with compound / corrected AUC of X-ray radiation alone” value turned out to be 1.8. The “Activity: ratio of percentage of cells labelling with propidium iodide, compound vs vehicle” value with TLM1 cells [4] was found to be 1.3. In addition, the “Activity: ratio of AUC of cytotoxity of NEL with and without 15 μM (3)” value in the series with HeLa cells [5] is recorded as 1.5.

These data come from US20220073475A1, “5-MEMBERED HETEROARYL COMPOUNDS CONTAINING A HYDROXAMATE MOIETY AND THEIR USE” (UNIVERSITE DE LILLE, priority 2019, published 2022).
